Experimental data reported in paper PMC7253423, “Quassinoid analogs with enhanced efficacy for treatment of hematologic malignancies target the PI3Kγ isoform” (Communications Biology, 2020).

Legend:
SU-DHL-4 cells = assay: Cell viability assay (CellTiter-Glo luminescence); format: cell-based, human; conditions: for relative cell viability (Fig 6d), replicates: fraction of 0 μM control
Procedure: (§1) 5000 cells as indicated were cultured in 96-well plate with 100 μl of media. On the next day, Brusatol or associated analogs were added once to the cells without media change. After treatment, the cells were incubated with 100 μl buffer for 10 min at room temperature following the instructions of CellTiter-Glo kit (Promega, Madison, WI). Luminescence was detected using a multi-mode reader Cytation 5 (BioTek, Winooski, VT). Brusatol or its analogs are dissolved in 100% ethanol and diluted in 1 × PBS for treatment. Two independent experiments done in duplicates were performed.

SU-DHL-10 cells = assay: Cell viability assay (CellTiter-Glo luminescence); format: cell-based, human; conditions: Fig 3a
Procedure: as §1

BJAB cells = assay: Cell viability assay (CellTiter-Glo luminescence); format: cell-based, human; conditions: relative to Control, Fig 1d / Fig 5a
Procedure: as §1

LCL2 cells = assay: Cell viability assay (CellTiter-Glo luminescence); format: cell-based, human; conditions: LCL2, relative to Control, Fig 1d / Fig 5a
Procedure: as §1

RPMI-8226 cells = assay: Cell viability assay (CellTiter-Glo luminescence); format: cell-based, human; conditions: Fig 3a
Procedure: as §1

Raji cells = assay: Cell viability assay (CellTiter-Glo luminescence); format: cell-based, human; conditions: Raji; for Relative cell viability: Fig 1c; for relative cell viability (Fig 6f), replicates: fraction of 0 μM control
Procedure: as §1

[1] = system: C17 nasopharyngeal carcinoma cells; assay: Cell viability assay (CellTiter-Glo luminescence); format: cell-based, human; conditions: Fig 4a
Procedure: as §1

K562 cells = assay: Cell viability assay (CellTiter-Glo luminescence); format: cell-based, human; conditions: for Relative cell viability over time: relative to 0, Fig 3b; for Relative cell viability: Fig 3a
Procedure: as §1

SU-DHL-6 cells = assay: Cell viability assay (CellTiter-Glo luminescence); format: cell-based, human; conditions: SU-DHL-6, relative to Control, Fig 1d / Fig 5a
Procedure: as §1

NB-4 cells = assay: Cell viability assay (CellTiter-Glo luminescence); format: cell-based, human; conditions: Fig 3a
Procedure: as §1

HL-60 cells = assay: Cell viability assay (CellTiter-Glo luminescence); format: cell-based, human; conditions: Fig 3a
Procedure: as §1

NPC43 cells = assay: Cell viability assay (CellTiter-Glo luminescence); format: cell-based, human; conditions: Fig 4a
Procedure: as §1

MOLM14 xenografts = assay: mRNA expression in xenograft tumors in vivo; parameters: species or system NOD/SCID mice; conditions: Ctrl = 1, Fig S3j
Procedure: Real-time PCR experiments were performed as previously described. The experiments were performed in triplicate.
Six-week-old male NOD.CB17-Prkdc^scid/J (NOD/SCID) mice (Jackson Labs, Bar Harbor, ME, USA) were used as the human-in-mouse xeno-transplantation model. MOLM14 cells (1 × 10^7 cells) were injected into the subcutaneous space on the left flank of the mice. Once xenografts reached a size of 100 mm^3, Brusatol and analogs (#14, #15, #26, #31) at 2 mg/kg body weight or PBS were injected intraperitoneally three times per week. Body weight and tumor size were monitored before every injection. After treatment for 2 weeks, the mice were euthanized by CO2 inhalation and the tumors were carefully excised. The tumor volume (mm^3) was measured and calculated using the formula (a × b × b)/2 (a, the largest diameter of two measurements; b, the smallest diameter of two measurements).

Brusatol
Relative cell viability (SU-DHL-4 cells; SU-DHL-4, Con. 0.000244141 μM, Fig 3a): 1.153 and 0.8294 | Relative cell viability (SU-DHL-4 cells; SU-DHL-4, Con. 0.000244141 μM, Fig 4a): 0.8035 and 0.8856 | Relative cell viability (SU-DHL-4 cells; SU-DHL-4, Con. 0.000976563 μM, Fig 4a): 0.4905 and 0.4207 | relative cell viability (Fig 6d), replicates (SU-DHL-4 cells; SU-DHL-4, Con. 0.00244141 μM): 1.534 and 1.104 | Relative cell viability (SU-DHL-4 cells; SU-DHL-4, Con. 0.00390625 μM, Fig 3a): 0.113 and 0.06547 | Relative cell viability (SU-DHL-4 cells; SU-DHL-4, Con. 0.00390625 μM, Fig 4a): 0.1671 and 0.2096 | relative cell viability (Fig 6d), replicates (SU-DHL-4 cells; SU-DHL-4, Con. 0.00976562 μM): 1.3333 and 1.429 | Relative cell viability (SU-DHL-4 cells; SU-DHL-4, Con. 0.015625 μM, Fig 3a): 0.04732 and 0.03797 | Relative cell viability (SU-DHL-4 cells; SU-DHL-4, Con. 0.015625 μM, Fig 4a): 0.128 and 0.2431 | relative cell viability (Fig 6d), replicates (SU-DHL-4 cells; SU-DHL-4, Con. 0.0390625 μM): 1.114 and 0.7293 | Relative cell viability (SU-DHL-4 cells; SU-DHL-4, Con. 0.0625 μM, Fig 3a): 0.03046 and 0.03255 | Relative cell viability (SU-DHL-4 cells; SU-DHL-4, Con. 0.0625 μM, Fig 4a): 0.1193 and 0.1216 | relative cell viability (Fig 6d), replicates (SU-DHL-4 cells; SU-DHL-4, Con. 0.15625 μM): 0.3764 and 0.3448 | Relative cell viability (SU-DHL-4 cells; SU-DHL-4, Con. 0.25 μM, Fig 3a): 0.02502 and 0.02181 | Relative cell viability (SU-DHL-4 cells; SU-DHL-4, Con. 0.25 μM, Fig 4a): 0.1169 and 0.1247 | relative cell viability (Fig 6d), replicates (SU-DHL-4 cells; SU-DHL-4, Con. 0.625 μM): 0.1642 and 0.114 | Relative cell viability (SU-DHL-4 cells; SU-DHL-4, Con. 1 μM, Fig 3a): 0.02033 and 0.01885 | Relative cell viability (SU-DHL-4 cells; SU-DHL-4, Con. 1 μM, Fig 4a): 0.1402 and 0.197 | relative cell viability (Fig 6d), replicates (SU-DHL-4 cells; SU-DHL-4, Con. 2.5 μM): 0.06413 and 0.06818 | relative cell viability (Fig 6d), replicates (SU-DHL-4 cells; SU-DHL-4, Con. 10 μM): 0.06047 and 0.06384 | Relative cell viability (SU-DHL-4 cells; SU-DHL-4, relative to Control, Fig 1d / Fig 5a): 0.132 and 0.08098 | Relative cell viability (SU-DHL-10 cells; SU-DHL-10, Con. 0.000244141 μM): 1.359 and 1.404 | Relative cell viability (SU-DHL-10 cells; SU-DHL-10, Con. 0.000976563 μM): 1.257 and 1.158 | Relative cell viability (SU-DHL-10 cells; SU-DHL-10, Con. 0.00390625 μM): 0.3529 and 0.2618 | Relative cell viability (SU-DHL-10 cells; SU-DHL-10, Con. 0.015625 μM): 0.06855 and 0.07532 | Relative cell viability (SU-DHL-10 cells; SU-DHL-10, Con. 0.0625 μM): 0.0486 and 0.04989 | Relative cell viability (SU-DHL-10 cells; SU-DHL-10, Con. 0.25 μM): 0.03432 and 0.03338 | Relative cell viability (SU-DHL-10 cells; SU-DHL-10, Con. 1 μM): 0.03538 and 0.0343 | Relative cell viability (BJAB cells): 0.6687 and 0.5708 | Relative cell viability (LCL2 cells): 0.2781 and 0.2516 | Relative cell viability (RPMI-8226 cells; RPMI-8226, Con. 0.000244141 μM): 1.059 and 0.8864 | Relative cell viability (RPMI-8226 cells; RPMI-8226, Con. 0.000976563 μM): 0.9317 and 0.797 | Relative cell viability (RPMI-8226 cells; RPMI-8226, Con. 0.00390625 μM): 0.4331 and 0.4665 | Relative cell viability (RPMI-8226 cells; RPMI-8226, Con. 0.015625 μM): 0.09043 and 0.07441 | Relative cell viability (RPMI-8226 cells; RPMI-8226, Con. 0.0625 μM): 0.06279 and 0.05226 | Relative cell viability (RPMI-8226 cells; RPMI-8226, Con. 0.25 μM): 0.05297 and 0.05028 | Relative cell viability (RPMI-8226 cells; RPMI-8226, Con. 1 μM): 0.05158 and 0.05215 | Relative cell viability (Raji cells; Con. 0.000244141 μM): 1.102 and 1.085 | Relative cell viability (Raji cells; Con. 0.000976563 μM): 0.9852 and 1.066 | relative cell viability (Fig 6f), replicates (Raji cells; Con. 0.00244141 μM): 1.11 and 0.9877 | Relative cell viability (Raji cells; Con. 0.00390625 μM): 0.6796 and 0.8115 | relative cell viability (Fig 6f), replicates (Raji cells; Con. 0.00976562 μM): 1.052 and 1.015 | Relative cell viability (Raji cells; Con. 0.015625 μM): 0.1834 and 0.2298 | relative cell viability (Fig 6f), replicates (Raji cells; Con. 0.0390625 μM): 0.8377 and 0.6422 | Relative cell viability (Raji cells; Con. 0.0625 μM): 0.0668 and 0.05639 | relative cell viability (Fig 6f), replicates (Raji cells; Con. 0.15625 μM): 0.2334 and 0.208 | Relative cell viability (Raji cells; Con. 0.25 μM): 0.04518 and 0.0472 | relative cell viability (Fig 6f), replicates (Raji cells; Con. 0.625 μM): 0.07627 and 0.07616 | Relative cell viability (Raji cells; Con. 1 μM): 0.0408 and 0.04055 | relative cell viability (Fig 6f), replicates (Raji cells; Con. 2.5 μM): 0.0482 and 0.0454 | relative cell viability (Fig 6f), replicates (Raji cells; Con. 10 μM): 0.04976 and 0.05217 | Relative cell viability ([1]; C17, Con. 0.000244141 μM): 0.9411 and 0.914 | Relative cell viability ([1]; C17, Con. 0.000976563 μM): 1.087 and 0.9752 | Relative cell viability ([1]; C17, Con. 0.00390625 μM): 1.086 and 1.022 | Relative cell viability ([1]; C17, Con. 0.015625 μM): 1.067 and 1.035 | Relative cell viability ([1]; C17, Con. 0.0625 μM): 0.8854 and 0.8649 | Relative cell viability ([1]; C17, Con. 0.25 μM): 0.6147 and 0.5533 | Relative cell viability ([1]; C17, Con. 1 μM): 0.4452 and 0.481 | Relative cell viability over time (K562 cells; K562, 24hrs): 1.168 and 1.204 | Relative cell viability over time (K562 cells; K562, 48hrs): 0.965 and 0.7565 | Relative cell viability over time (K562 cells; K562, 72hrs): 0.5464 and 0.5022 | Relative cell viability (K562 cells; K562, Con. 0.000244141 μM): 1.187 and 1.19 | Relative cell viability (K562 cells; K562, Con. 0.000976563 μM): 0.9766 and 0.928 | Relative cell viability (K562 cells; K562, Con. 0.00390625 μM): 1.17 and 1.142 | Relative cell viability (K562 cells; K562, Con. 0.015625 μM): 0.292 and 0.2204 | Relative cell viability (K562 cells; K562, Con. 0.0625 μM): 0.1449 and 0.1363 | Relative cell viability (K562 cells; K562, Con. 0.25 μM): 0.1177 and 0.1097 | Relative cell viability (K562 cells; K562, Con. 1 μM): 0.1126 and 0.1177 | Relative cell viability (SU-DHL-6 cells): 0.143 and 0.1591 | Relative cell viability (NB-4 cells; NB-4, Con. 0.000244141 μM): 1.057 and 0.6748 | Relative cell viability (NB-4 cells; NB-4, Con. 0.000976563 μM): 0.9903 and 0.9953 | Relative cell viability (NB-4 cells; NB-4, Con. 0.00390625 μM): 0.9731 and 0.8212 | Relative cell viability (NB-4 cells; NB-4, Con. 0.015625 μM): 0.09728 and 0.08892 | Relative cell viability (NB-4 cells; NB-4, Con. 0.0625 μM): 0.04557 and 0.04445 | Relative cell viability (NB-4 cells; NB-4, Con. 0.25 μM): 0.0343 and 0.02988 | Relative cell viability (NB-4 cells; NB-4, Con. 1 μM): 0.03379 and 0.02721 | Relative cell viability (HL-60 cells; HL-60, Con. 0.000244141 μM): 0.8336 and 0.8977 | Relative cell viability (HL-60 cells; HL-60, Con. 0.000976563 μM): 0.8923 and 0.9849 | Relative cell viability (HL-60 cells; HL-60, Con. 0.00390625 μM): 0.9023 and 0.9577 | Relative cell viability (HL-60 cells; HL-60, Con. 0.015625 μM): 0.7622 and 0.7425 | Relative cell viability (HL-60 cells; HL-60, Con. 0.0625 μM): 0.5978 and 0.6056 | Relative cell viability (HL-60 cells; HL-60, Con. 0.25 μM): 0.5376 and 0.5558 | Relative cell viability (HL-60 cells; HL-60, Con. 1 μM): 0.5035 and 0.5943 | Relative cell viability (NPC43 cells; NPC43, Con. 0.000244141 μM): 1.007 and 1.011 | Relative cell viability (NPC43 cells; NPC43, Con. 0.000976563 μM): 1.06 and 0.9635 | Relative cell viability (NPC43 cells; NPC43, Con. 0.00390625 μM): 1.024 and 1.0649 | Relative cell viability (NPC43 cells; NPC43, Con. 0.015625 μM): 1.008 and 1.084 | Relative cell viability (NPC43 cells; NPC43, Con. 0.0625 μM): 0.9475 and 0.9014 | Relative cell viability (NPC43 cells; NPC43, Con. 0.25 μM): 0.5585 and 0.6588 | Relative cell viability (NPC43 cells; NPC43, Con. 1 μM): 0.445 and 0.471 | GSK3B mRNA expression relative to Ctrl (MOLM14 xenografts): 0.7303 | PIK3CG mRNA expression relative to Ctrl (MOLM14 xenografts): 1.196

“And” between values parts separate entries of the source, which are not always exact repeats. Identical values can stand only once.
